Assay results taken from ChEMBL document CHEMBL1132816, “Arylacetamides as peripherally restricted kappa opioid receptor agonists” (Bioorg Med Chem Lett, 2000).

The chains behind the UniProt entries cited, without tags or fusion partners. Where a name states a change or a piece, a line headed by the entry shows the natural chain unless it says otherwise.
UniProt P41145: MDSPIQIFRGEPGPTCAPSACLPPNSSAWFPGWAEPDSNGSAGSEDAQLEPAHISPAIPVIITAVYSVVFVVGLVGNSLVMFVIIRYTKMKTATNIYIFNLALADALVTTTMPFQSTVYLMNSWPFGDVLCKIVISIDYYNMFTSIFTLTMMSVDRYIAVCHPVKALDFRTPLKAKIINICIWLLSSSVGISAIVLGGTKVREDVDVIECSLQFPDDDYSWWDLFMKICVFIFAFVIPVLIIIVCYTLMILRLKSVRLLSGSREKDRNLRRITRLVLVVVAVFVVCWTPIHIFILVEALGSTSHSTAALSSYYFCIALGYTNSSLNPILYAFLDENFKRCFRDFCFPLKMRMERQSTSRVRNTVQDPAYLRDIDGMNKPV

target: Kappa-type opioid receptor (Homo sapiens, UniProt P41145); experiment: In vitro binding affinity towards Opioid receptor kappa 1 by displacement of bound [3H]U-69593

| SMILES | Ki [nM] |
| --- | --- |
| CN(C(=O)Cc1cccc([N+](=O)[O-])c1)[C@H](CN1CCCC1)c1ccccc1 | 0.065 |
| CN(C(=O)Cc1ccc(Cl)c(Cl)c1N(S(C)(=O)=O)S(C)(=O)=O)[C@H](CN1CCCC1)c1ccccc1 | 0.096 |
| CN(C(=O)Cc1ccc(Cl)c(Cl)c1N)[C@H](CN1CCCC1)c1ccccc1 | 0.086 |
| CN(C(=O)Cc1ccc(N)cc1)[C@H](CN1CCCC1)c1ccccc1 | 0.93 |
| CN(C(=O)Cc1ccccc1N(S(C)(=O)=O)S(C)(=O)=O)[C@H](CN1CCCC1)c1ccccc1 | 8.6 |
| CN(C(=O)Cc1ccc(N(S(C)(=O)=O)S(C)(=O)=O)cc1)[C@H](CN1CCCC1)c1ccccc1 | 25 |
| CN(C(=O)Cc1ccccc1C(F)(F)F)[C@H](CN1CCCC1)c1ccccc1 | 0.13 |
| CN(C(=O)Cc1cccc(N)c1)[C@H](CN1CCCC1)c1ccccc1 | 0.93 |
| CN(C(=O)Cc1ccc([N+](=O)[O-])cc1)[C@H](CN1CCCC1)c1ccccc1 | 1.1 |
| CN(C(=O)Cc1ccc(Cl)c(Cl)c1[N+](=O)[O-])[C@H](CN1CCCC1)c1ccccc1 | 0.091 |
| CN(C(=O)Cc1ccc(Cl)c(Cl)c1)[C@H](CN1CCCC1)c1ccccc1 [ICI-199,441] | 0.054 |
| CN(C(=O)Cc1cccc(C(F)(F)F)c1)[C@H](CN1CCCC1)c1ccccc1 | 0.064 |
| CN(C(=O)Cc1ccccc1N)[C@H](CN1CCCC1)c1ccccc1 | 0.58 |
| CN(C(=O)Cc1cccc(N(S(C)(=O)=O)S(C)(=O)=O)c1)[C@H](CN1CCCC1)c1ccccc1 | 6 |
| CN(C(=O)Cc1ccccc1[N+](=O)[O-])[C@H](CN1CCCC1)c1ccccc1 | 0.41 |
| CN(C(=O)Cc1ccc(C(F)(F)F)cc1)[C@H](CN1CCCC1)c1ccccc1 | 0.058 |
